# Measured values published in ChEMBL document CHEMBL4020829, “Structure-Activity Relationships and Computational Investigations into the Development of Potent and Balanced Dual-Acting Butyrylcholinesterase Inhibitors and Human Cannabinoid Receptor 2 Ligands with Pro-Cognitive in Vivo Profiles” (J Med Chem, 2018).
# Amino acid sequences for entries named in this document (tags omitted).
# UniProt P21554, whole entry: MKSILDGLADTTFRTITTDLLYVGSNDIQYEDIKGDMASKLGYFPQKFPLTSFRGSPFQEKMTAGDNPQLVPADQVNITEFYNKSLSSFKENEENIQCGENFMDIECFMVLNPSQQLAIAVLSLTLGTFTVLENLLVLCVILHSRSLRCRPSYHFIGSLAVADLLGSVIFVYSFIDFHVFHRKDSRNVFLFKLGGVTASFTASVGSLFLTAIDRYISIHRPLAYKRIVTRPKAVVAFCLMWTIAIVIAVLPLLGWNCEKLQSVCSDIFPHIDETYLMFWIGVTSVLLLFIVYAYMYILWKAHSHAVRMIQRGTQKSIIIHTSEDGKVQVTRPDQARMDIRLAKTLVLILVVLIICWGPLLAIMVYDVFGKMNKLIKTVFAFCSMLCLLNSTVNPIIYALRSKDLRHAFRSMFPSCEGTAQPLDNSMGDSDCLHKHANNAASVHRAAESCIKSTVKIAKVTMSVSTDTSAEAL
# Key:
# Cannabinoid receptor 1 [1] = target: T1, Cannabinoid receptor 1 (Homo sapiens, UniProt P21554); assay: biochemical; type: cell-based
# Cannabinoid receptor 1 [2] = target: T1, Cannabinoid receptor 1; assay: biochemical
smiles,measurement,setting,value
Cc1ccc(Cn2nc(C(=O)N[C@@H]3C(C)(C)[C@@H]4CC[C@@]3(C)C4)cc2-c2ccc(Cl)c(C)c2)cc1,IC50,Cannabinoid receptor 1 [1],794 nM
same,Ki,Cannabinoid receptor 1 [1],687 nM
same,Ki,Cannabinoid receptor 1 [2],254 nM
